## OPERA 2.9 data: water solubility values

Water solubility is log10 of mol/L, nominally at 25 °C; higher is more soluble.

SMILES,water solubility (log10 mol/L)
Nc1ncnc2c1ccn2[C@@H]1O[C@H](CO)[C@@H](O)[C@H]1O,-1.95
FC(F)(F)c1ccc(Cl)cc1,-3.728
COc1c(C(C)(C)C)cc([N+](=O)[O-])c(C)c1[N+](=O)[O-],-5.531
COC(=O)c1ccccc1S(=O)(=O)NC(=O)Nc1nc(C)nc(OC)n1,-1.87
CNC(=O)c1cc(C#N)cc(C)c1NC(=O)c1cc(Cn2nnc(C(F)(F)F)n2)nn1-c1ncccc1Cl,-5.697
COc1nn(C(=O)[N-]S(=O)(=O)c2ccccc2OC(F)(F)F)c(=O)n1C.[Na+],-0.979
ClC1=C(Cl)[C@]2(Cl)[C@H]3[C@H]([C@@H]4O[C@]4(Cl)[C@@H]3Cl)[C@@]1(Cl)C2(Cl)Cl,-7.27
Cc1cc(Cc2cc(C)c(OCC3CO3)c(C)c2)cc(C)c1OCC1CO1 (stereo not drawn),-5.704
Oc1c(Br)cc(Br)cc1Br,-3.749
CCS(=O)CCSP(=S)(OC)OC (stereo not drawn),-0.914
O=c1cccc2n1C[C@@H]1CNC[C@H]2C1,0.36
O=C(CBr)Nc1ccc(Cl)cc1C(=O)c1ccccc1F,-5.574
FC(F)(F)N1C(F)(F)C(F)(F)OC(F)(F)C1(F)F,-5.596
CCC1C(=O)NC(=O)NC1=O,-1.427
CCC(C)C1(CC)C(=O)NC(=O)NC1=O (stereo not drawn),-2.232
FC(F)=C(F)C(F)(F)F,-2.889
ClCc1c(Cl)cccc1Cl,-3.747
NC1CCC(CC2CCC(N)CC2)CC1 (stereo not drawn),-1.723
COc1cc(OC)nc(Sc2cccc(Cl)c2C(=O)[O-])n1.[Na+],0.32
CCOP(=O)(CN(CCO)CCO)OCC,0.547
COC(=O)[N-]S(=O)(=O)c1ccc(N)cc1.[Na+],0.58
CNC1=C(c2cccc(C(F)(F)F)c2)C(=O)C(c2ccccc2)O1 (stereo not drawn),-4.489
O=C([O-])C(F)(F)C(F)(F)C(F)(F)C(F)(F)C(F)(F)F.[Na+],-4.057
CC1CCC2CC1(OO)C2(C)C (stereo not drawn),-3.027
COc1cc(OC)nc(NC(=O)NS(=O)(=O)c2cc(NC=O)ccc2C(=O)N(C)C)n1,-2.14
FC(F)=C(F)Cl,-2.486
CC(=O)NC(=O)CCl,-1.509
CC(C)(C)OOC(=O)C(C)(C)C,-2.068
CN(C)Cc1nnc2n1-c1ccc(Cl)cc1C(c1ccccc1)=NC2,-3.719
c1coc(-c2nc3ccccc3[nH]2)c1,-3.41
CC(C)[C@@]1(O)[C@@H](OC(=O)c2ccc[nH]2)[C@@]2(O)[C@@]3(C)C[C@]4(O)O[C@@]5([C@H](O)[C@@H](C)CC[C@]35O)[C@@]2(O)[C@@]14C,-1.489
NC(N)=Nc1ccc2[nH]c3c(c2c1)CC1(O)C2Cc4ccc(O)c5c4C1(CCN2CC1CC1)C3O5.O=C(O)C(F)(F)F.O=C(O)C(F)(F)F (stereo not drawn),-1.368
Nc1ccc(Br)cc1,-2.39
CCNCC(O)c1cccc(O)c1 (stereo not drawn),-3.454
FC(F)=C(F)OC(F)(F)F,-3.722
Brc1cc(Br)c(Oc2cc(Br)c(Br)cc2Br)cc1Br,-8.869
O=[N+]([O-])c1ccc(O)c([N+](=O)[O-])c1,-1.819
CCCC(=O)OC(C(Cl)(Cl)Cl)P(=O)(OC)OC (stereo not drawn),-3.05
Nc1cccc(Cl)c1Cl,-2.13
C[C@@]12CC[C@@H]3[C@H](CCC4=CC(=O)C=C[C@]43C)[C@H]1CCC2=O,-2.82
CC1(C)C(C=C(Cl)Cl)C1C(=O)OCc1cccc(Oc2ccccc2)c1 (stereo not drawn),-6.67
C[C@]12CC[C@H]3[C@@H](C=CC4=CC(=O)CC[C@@H]43)[C@@H]1CC[C@@H]2O (stereo in doubt),-3.723
CCNC1=Nc2ccc(Cl)cc2C(C)(c2ccccc2)O1 (stereo not drawn),-4.779
COC(N)=O,0.97
CN(C)C(=O)Nc1cccc(OC(=O)NC(C)(C)C)c1,-2.931
CCCC1(CCC(C)C)C(=O)NC(=O)NC1=O,-2.595
CCc1ccccc1N,-1.619
FC(F)C(F)(F)OCC(Cn1cncn1)c1ccc(Cl)cc1Cl (stereo not drawn),-3.38
NC(=O)Nc1cccc(C(F)(F)F)c1,-2.66
CCCCCC1(CC)C(=O)NC(=O)NC1=O,-2.26
CN1C(=O)CC(=O)N(c2ccccc2)c2cc(Cl)ccc21,-3.263
COC(=O)Nc1nc2ccccc2[nH]1,-4.1
CC(C)COC(=O)Cc1ccccc1,-3.271

Excerpt, the opening 9 entries:

{"smiles": "Nc1ncnc2c1ccn2[C@@H]1O[C@H](CO)[C@@H](O)[C@H]1O", "water solubility (log10 mol/L)": "-1.95"}
{"smiles": "FC(F)(F)c1ccc(Cl)cc1", "water solubility (log10 mol/L)": "-3.728"}
{"smiles": "COc1c(C(C)(C)C)cc([N+](=O)[O-])c(C)c1[N+](=O)[O-]", "water solubility (log10 mol/L)": "-5.531"}
{"smiles": "COC(=O)c1ccccc1S(=O)(=O)NC(=O)Nc1nc(C)nc(OC)n1", "water solubility (log10 mol/L)": "-1.87"}
{"smiles": "CNC(=O)c1cc(C#N)cc(C)c1NC(=O)c1cc(Cn2nnc(C(F)(F)F)n2)nn1-c1ncccc1Cl", "water solubility (log10 mol/L)": "-5.697"}
{"smiles": "COc1nn(C(=O)[N-]S(=O)(=O)c2ccccc2OC(F)(F)F)c(=O)n1C.[Na+]", "water solubility (log10 mol/L)": "-0.979"}
{"smiles": "ClC1=C(Cl)[C@]2(Cl)[C@H]3[C@H]([C@@H]4O[C@]4(Cl)[C@@H]3Cl)[C@@]1(Cl)C2(Cl)Cl", "water solubility (log10 mol/L)": "-7.27"}
{"smiles": "Cc1cc(Cc2cc(C)c(OCC3CO3)c(C)c2)cc(C)c1OCC1CO1", "stereo": "stereo not drawn", "water solubility (log10 mol/L)": "-5.704"}
{"smiles": "Oc1c(Br)cc(Br)cc1Br", "water solubility (log10 mol/L)": "-3.749"}

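OPERA's authors assembled the values from existing databases and did not measure them anew. One number stands for a compound and property, with no spread given. How each value was measured is not recorded, so precision varies. A value may pool stereoisomers or salt forms, and the file does not say which form was measured. Unmarked limits or estimates from the upstream databases cannot be ruled out.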

Source: data files of OPERA 2.9 (Mansouri et al.), github.com/kmansouri/OPERA.